# Permeability data for macrocyclic peptides

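Lipid, pH, incubation time, direction and concentration are not recorded in the data file. The list need not hold all peptides of the study. Entries at the database's floor value (log10 P of -10) are not listed.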

PAMPA is the parallel artificial membrane permeability assay, which has no cells and reads passive diffusion.
P is given in units of 10^-6 cm/s (from log10 values with two decimals); larger means faster passage.

PAMPA (10^-6 cm/s)	structure (SMILES)
0.13	CC(C)C[C@@H]1NC(=O)[C@@H](C)NC(=O)[C@H](Cc2ccccc2)NC(=O)[C@@H](CC(C)C)NC(=O)[C@@H]2CCCN2C(=O)[C@H](CC(C)C)NC1=O
7.2	CC(C)C[C@@H]1NC(=O)C[C@H](Cc2ccccc2)NC(=O)[C@H](Cc2ccccc2)NC(=O)[C@H](CC(C)C)NC(=O)[C@H]2CCCN2C(=O)[C@H](CC(C)C)NC1=O
1.9	CC(C)C[C@@H]1NC(=O)[C@H](C)N(C)C(=O)[C@@H]2CCCN2C(=O)[C@H](Cc2ccccc2)NC(=O)CN(Cc2ccccc2)C(=O)[C@H]2CCCN2C(=O)[C@@H](CC(C)C)N(C)C1=O
7.9	CC(C)C[C@H]1C(=O)N[C@@H](Cc2ccccc2)CC(=O)N2CCC[C@H]2C(=O)N(C)[C@@H](CC(C)C)C(=O)N[C@@H](Cc2ccccc2)C(=O)N(C)[C@H](C)C(=O)N1C
0.34	CC(C)C[C@@H]1NC(=O)[C@@H](C)NC(=O)[C@H](Cc2ccccc2)NC(=O)[C@@H](CC(C)C)N(C)C(=O)[C@@H]2CCCN2C(=O)[C@H](CC(C)C)N(C)C1=O
4.3	CC(C)C[C@@H]1NC(=O)[C@@H](CC(C)C)N(C)C(=O)C[C@H](Cc2ccccc2)NC(=O)[C@@H]2CCCN2C(=O)[C@H](Cc2ccccc2)NC(=O)[C@H](CC(C)C)N(C)C(=O)[C@H]2CCCN2C1=O
3.1	CC(C)C[C@H]1NC(=O)[C@@H]2CCCN2C(=O)[C@H](CC(C)C)N(C)C(=O)[C@@H](CC(C)C)NC(=O)C[C@H](Cc2ccccc2)NC(=O)[C@H]2CCCN2C(=O)[C@H](Cc2ccccc2)NC1=O
1.6	CC(C)C[C@@H]1NC(=O)[C@@H](CC(C)C)N(C)C(=O)[C@@H](C)NC(=O)[C@H](Cc2ccccc2)NC(=O)[C@@H](CC(C)C)NC(=O)[C@@H]2CCCN2C1=O
0.56	CC(C)C[C@@H]1C(=O)N2CCC[C@@H]2C(=O)N(C)[C@@H](CC(C)C)C(=O)N[C@@H](Cc2ccccc2)C(=O)N[C@H](C)C(=O)N[C@H](CC(C)C)C(=O)N1C
3.3	CC(C)C[C@@H]1NC(=O)[C@H](C)N(C)C(=O)[C@H]2CCCN2C(=O)[C@H](Cc2ccccc2)NC(=O)CN(Cc2ccccc2)C(=O)[C@@H]2CCCN2C(=O)[C@@H](CC(C)C)N(C)C1=O
6.5	CC(C)C[C@H]1NC(=O)[C@H](C)N(C)C(=O)[C@H]2CCCN2C(=O)[C@H](Cc2ccccc2)NC(=O)[C@H](CC(C)C)N(C)C(=O)[C@@H]2CCCN2C(=O)[C@H](CC(C)C)N(C)C1=O
4.2	CC(C)C[C@@H]1C(=O)N(C)[C@@H](CC(C)C)C(=O)N2CCC[C@H]2C(=O)N(C)[C@H](CC(C)C)C(=O)N[C@@H](Cc2ccccc2)C(=O)N2CCC[C@@H]2C(=O)N[C@@H](Cc2ccccc2)CC(=O)N1C
1.5	CC(C)C[C@@H]1C(=O)N2CCC[C@@H]2C(=O)N(Cc2ccccc2)CC(=O)N[C@@H](Cc2ccccc2)C(=O)N2CCC[C@H]2C(=O)N[C@@H](Cc2ccccc2)CC(=O)N[C@H](CC(C)C)C(=O)N1C
6.6	CC(C)C[C@@H]1C(=O)N[C@@H](Cc2ccccc2)CC(=O)N2CCC[C@@H]2C(=O)N(C)[C@@H](CC(C)C)C(=O)N[C@@H](Cc2ccccc2)C(=O)N2CCC[C@@H]2C(=O)N[C@H](C)C(=O)N1C
1.3	CC(C)C[C@@H]1NC(=O)[C@@H]2CCCN2C(=O)[C@H](CC(C)C)NC(=O)[C@@H](CC(C)C)N(C)C(=O)[C@@H](C)NC(=O)[C@H](Cc2ccccc2)NC1=O
1.4	CC(C)C[C@@H]1NC(=O)[C@@H]2CCCN2C(=O)[C@@H](CC(C)C)N(C)C(=O)[C@H](CC(C)C)N(C)C(=O)[C@@H](C)NC(=O)[C@@H]2CCCN2C(=O)[C@H](Cc2ccccc2)NC1=O
4.2	CC(C)C[C@@H]1NC(=O)[C@H](CC(C)C)N(C)C(=O)[C@@H](C)NC(=O)[C@H]2CCCN2C(=O)[C@H](Cc2ccccc2)NC(=O)[C@@H](CC(C)C)N(C)C(=O)[C@H]2CCCN2C1=O
4.8	CC(C)C[C@@H]1C(=O)N2CCC[C@@H]2C(=O)N(C)[C@@H](CC(C)C)C(=O)N[C@@H](Cc2ccccc2)C(=O)N2CCC[C@@H]2C(=O)N[C@@H](Cc2ccccc2)CC(=O)N[C@H](CC(C)C)C(=O)N1C
0.83	CC(C)C[C@@H]1NC(=O)[C@@H]2CCCN2C(=O)[C@@H](CC(C)C)N(C)C(=O)[C@H](CC(C)C)N(C)C(=O)[C@@H](C)N(C)C(=O)[C@H]2CCCN2C(=O)[C@H](Cc2ccccc2)NC1=O
1.6	CC(C)C[C@@H]1NC(=O)[C@@H]2CCCN2C(=O)[C@H](CC(C)C)NC(=O)[C@@H](CC(C)C)N(C)C(=O)[C@H](C)NC(=O)[C@H](Cc2ccccc2)NC1=O
1.8	CC(C)C[C@@H]1C(=O)N[C@H](CC(C)C)C(=O)N2CCC[C@H]2C(=O)N(Cc2ccccc2)CC(=O)N[C@@H](Cc2ccccc2)C(=O)N2CCC[C@@H]2C(=O)N[C@@H](C)C(=O)N1C
5.1	CC(C)C[C@@H]1C(=O)N[C@@H](Cc2ccccc2)CC(=O)N2CCC[C@H]2C(=O)N(C)[C@H](CC(C)C)C(=O)N[C@@H](Cc2ccccc2)C(=O)N2CCC[C@@H]2C(=O)N(C)[C@@H](C)C(=O)N1C

2 of these entries, quoted again:

structure (SMILES)	PAMPA (10^-6 cm/s)
CC(C)C[C@@H]1C(=O)N2CCC[C@@H]2C(=O)N(Cc2ccccc2)CC(=O)N[C@@H](Cc2ccccc2)C(=O)N2CCC[C@H]2C(=O)N[C@@H](Cc2ccccc2)CC(=O)N[C@H](CC(C)C)C(=O)N1C	1.5
CC(C)C[C@@H]1C(=O)N[C@H](CC(C)C)C(=O)N2CCC[C@H]2C(=O)N(Cc2ccccc2)CC(=O)N[C@@H](Cc2ccccc2)C(=O)N2CCC[C@@H]2C(=O)N[C@@H](C)C(=O)N1C	1.8

Values of Townsend et al. 2020, doi:10.26434/chemrxiv.13335941.v1, as listed in CycPeptMPDB.